Biological target: T1, μ opioid receptor (OPRM1) (Homo sapiens, UniProt P35372)
T1 construct: purchased Eurofins DiscoverX (SAFETYscan; gpcrSCAN; HitHunter cAMP XS+)
Assay: Eurofins DiscoverX opioid receptor assays (SAFETYscan; HitHunter cAMP), OPRM1
Format: cell-based
Conditions: Agonist format, control
Description: Assessment of the safety profile of VBJ103 across 78 assays using recombinant human targets was performed with the SAFETYscan E/IC50 ELECT service by Eurofins DiscoverX (San Diego, CA, USA). […] The assays were performed utilizing PathHunter enzyme fragment complementation (EFC) technology, FLIPR®-based cellular screening assays, KINOMEscan kinase binding assays and a variety of enzymatic assays. Further potential functional activity at opioid receptors was performed in the gpcrSCAN service by Eurofins DiscoverX. Hit Hunter® cAMP assays were carried out using Enzyme Fragment Complementation (EFC) with β-galactosidase (β-Gal) as the functional reporter.
Assessment of potential positive allosteric modulator (PAM) activity at μ, δ and κ opioid receptors was performed with the DiscoverX HitHunter cAMP XS+ assay by Eurofins DiscoverX (San Diego, CA, USA).

Chains of the proteins cited; added tags and fusions are not shown.
UniProt P35372, whole entry: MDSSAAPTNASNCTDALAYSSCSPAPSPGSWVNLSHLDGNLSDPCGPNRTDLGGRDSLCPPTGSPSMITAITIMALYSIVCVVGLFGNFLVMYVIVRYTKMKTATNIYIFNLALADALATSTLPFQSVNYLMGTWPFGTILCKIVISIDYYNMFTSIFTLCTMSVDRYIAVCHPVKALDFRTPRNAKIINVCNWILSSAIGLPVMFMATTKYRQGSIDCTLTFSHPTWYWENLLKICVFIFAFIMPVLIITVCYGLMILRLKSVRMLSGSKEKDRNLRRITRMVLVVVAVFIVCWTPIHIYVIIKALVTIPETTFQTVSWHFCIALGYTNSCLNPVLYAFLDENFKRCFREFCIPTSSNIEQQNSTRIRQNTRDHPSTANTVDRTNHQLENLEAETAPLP

Question: Which “Hill, cAMP” value does the source give for `CSCC[C@H](NC(=O)[C@H](Cc1ccccc1)NC(=O)CNC(=O)CNC(=O)[C@@H](N)Cc1ccc(O)cc1)C(=O)O` [[Met] Enkephalin, reference compound] here?
Answer: Its value is 1.8218.

Question: And the Emax (OPRM1, read-out: Max Response, cAMP)?
Answer: Its Emax is 100%.

Reference: paper PMC12459314, “Subcutaneous administration of a novel TRPM8 antagonist reverses cold hypersensitivity while attenuating the drop in core body temperature” (British journal of pharmacology, 2024)
